AlphaSeq binding of Ab-14 light chain variants to a spike HR2 peptide

All variants were tested on one target, the spike HR2 peptide PDVDLGDISGINAS (SARS-CoV-2).

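The parent was found by panning a naive human phage display library on the peptide. In library AAYL50, one, two or three CDR residues were substituted; doubles and triples were drawn at random. In AlphaSeq, yeast of one mating type display the scFv and yeast of the other type display the target. Binding brings cells together so that they mate, and sequencing counts the barcode pairs among the diploids. Scores were corrected for input abundance and mapped to Kd with protein pairs of known affinity run in the same pool. The assay was run in three technical replicates.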

Parent scFv Ab-14: VH joined to VL by the linker GGGGSGGGGSGGGGS. Changes lie in the light chain CDRs alone.
VH: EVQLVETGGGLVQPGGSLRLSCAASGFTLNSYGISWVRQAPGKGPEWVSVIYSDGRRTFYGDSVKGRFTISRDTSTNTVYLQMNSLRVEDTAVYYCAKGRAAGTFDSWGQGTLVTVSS
VL: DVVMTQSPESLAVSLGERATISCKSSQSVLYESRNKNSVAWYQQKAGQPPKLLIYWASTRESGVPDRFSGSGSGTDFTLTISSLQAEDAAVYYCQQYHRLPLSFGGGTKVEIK

The whole VL of each variant is written out. Affinities are written as log10 Kd with Kd in nM; a lower number is a better binder. "nd" marks a missing value. The strain was present, yet no cells mated with the target were sequenced in that replicate, which points to weak or no binding. As a blank, each scFv also met three strains without target: over library AAYL50, 18% of these pairings were detected, typically at 4.19 and seldom below 2.99. Also given: how often the same scFv was detected with the empty control strains, with their mean in brackets. Parent in this assay: reference entry 0.65, copy in this library 1.68.

VL | log10 Kd (nM) by replicate | empty controls
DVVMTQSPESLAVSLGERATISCKSSQSVCYESRNKNSVAWYQQKAGQPPKLLIYWAATRESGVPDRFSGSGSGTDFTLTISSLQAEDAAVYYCQQYHVLPLSFGGGTKVEIK | 1.79 / 2.00 / 2.59 | 0 of 9
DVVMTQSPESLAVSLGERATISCRSSQSVLYESRNKNSVAWYQQKAGQPPKLLIYWASTRESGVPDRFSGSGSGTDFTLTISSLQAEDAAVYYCQPYHRLPLDFGGGTKVEIK | nd / nd / nd | 2 of 9 (3.97)
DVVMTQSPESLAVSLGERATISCKPWQSVLYESRNKNSVAWYQQKAGQPPKLLIYWASTRESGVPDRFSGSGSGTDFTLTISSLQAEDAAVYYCQQYHRQPLSFGGGTKVEIK | 1.91 / 2.53 / 2.84 | 0 of 9
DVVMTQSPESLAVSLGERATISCKSSQSVQYESRNKNSVVWYQQKAGQPPKLLIYWRSTRESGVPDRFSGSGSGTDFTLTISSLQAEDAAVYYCQQYHRLPLSFGGGTKVEIK | nd / nd / nd | 2 of 9 (4.41)
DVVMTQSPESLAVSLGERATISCKGSQSVLYESRNGGSVAWYQQKAGQPPKLLIYWASTRESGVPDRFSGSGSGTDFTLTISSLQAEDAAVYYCQQYHRLPLSFGGGTKVEIK | 1.90 / 1.98 / 1.76 | 2 of 9 (4.54)
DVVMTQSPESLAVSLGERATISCGSSPSVLYESRNKNSVAWYQQKAGQPPKLLIYWASTRESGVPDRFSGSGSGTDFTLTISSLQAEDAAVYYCQWYHRLPLSFGGGTKVEIK | nd / 3.02 / 4.21 | 5 of 9 (4.36)
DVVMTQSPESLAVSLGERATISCKSSQSVLYESRNKNSVAWYQQKAGQPPKLLIYWMSTRESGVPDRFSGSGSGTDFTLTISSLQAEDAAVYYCQCYHRLPDSFGGGTKVEIK | 5.06 / 3.72 / nd | 1 of 9 (3.78)
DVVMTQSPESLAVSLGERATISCKLVQSVLYESRNKNSVAWYQQKAGQPPKLLIYWSSTRESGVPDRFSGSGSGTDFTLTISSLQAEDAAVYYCQQYHRLPLSFGGGTKVEIK | 2.46 / 1.91 / 2.15 | 2 of 9 (4.19)
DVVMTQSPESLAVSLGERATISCKPSQSVLYESRNKNAVAWYQQKAGQPPKLLIYWASTRESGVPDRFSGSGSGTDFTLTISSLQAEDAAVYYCQQYHRLPASFGGGTKVEIK | nd / nd / nd | 2 of 9 (5.24)
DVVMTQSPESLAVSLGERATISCKSSQFVLYESVNKNSVAWYQQKAGQPPKLLIYWASTRESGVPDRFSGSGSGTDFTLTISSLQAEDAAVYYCQQNHRLPLSFGGGTKVEIK | 3.82 / 3.71 / nd | 3 of 9 (3.92)
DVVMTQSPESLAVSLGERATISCKSSQSALYESRNKNSETWYQQKAGQPPKLLIYWASTRESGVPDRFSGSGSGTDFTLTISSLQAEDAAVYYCQQYHRLPLSFGGGTKVEIK | nd / nd / nd | 0 of 9
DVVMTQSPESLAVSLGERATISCKSSQSILYESRNKNSVPWYQQKAGQPPKLLIYWASTRHSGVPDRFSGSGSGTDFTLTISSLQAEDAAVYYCQQYHRLPLSFGGGTKVEIK | nd / nd / 4.13 | 5 of 9 (4.80)
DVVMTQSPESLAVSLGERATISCKSSQSVLYESRNKYSVAWYQQKAGQPPKLLIYWASTRESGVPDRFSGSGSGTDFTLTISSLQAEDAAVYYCQQWHRLPLSFGGGTKVEIK | nd / 3.65 / nd | 3 of 9 (3.54)
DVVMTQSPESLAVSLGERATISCKSWQSVLYESRNKNSVAWYQQKAGQPPKLLIYWASTRESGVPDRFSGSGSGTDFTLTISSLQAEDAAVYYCQQYHRLPLSFGGGTKVEIK | 2.62 / 2.61 / 2.65 | 4 of 9 (4.27)

Values reported by Engelhart et al. 2022, doi:10.1038/s41597-022-01779-4 (FLAb copy).